{"sequences": {"note": "Sequences of proteins named here, by UniProt entry; tags and fusion partners are left off. A change or cut given only in a name is not applied to a line headed by its entry. Residues count along the entry.", "UniProt O42275, 24-633": "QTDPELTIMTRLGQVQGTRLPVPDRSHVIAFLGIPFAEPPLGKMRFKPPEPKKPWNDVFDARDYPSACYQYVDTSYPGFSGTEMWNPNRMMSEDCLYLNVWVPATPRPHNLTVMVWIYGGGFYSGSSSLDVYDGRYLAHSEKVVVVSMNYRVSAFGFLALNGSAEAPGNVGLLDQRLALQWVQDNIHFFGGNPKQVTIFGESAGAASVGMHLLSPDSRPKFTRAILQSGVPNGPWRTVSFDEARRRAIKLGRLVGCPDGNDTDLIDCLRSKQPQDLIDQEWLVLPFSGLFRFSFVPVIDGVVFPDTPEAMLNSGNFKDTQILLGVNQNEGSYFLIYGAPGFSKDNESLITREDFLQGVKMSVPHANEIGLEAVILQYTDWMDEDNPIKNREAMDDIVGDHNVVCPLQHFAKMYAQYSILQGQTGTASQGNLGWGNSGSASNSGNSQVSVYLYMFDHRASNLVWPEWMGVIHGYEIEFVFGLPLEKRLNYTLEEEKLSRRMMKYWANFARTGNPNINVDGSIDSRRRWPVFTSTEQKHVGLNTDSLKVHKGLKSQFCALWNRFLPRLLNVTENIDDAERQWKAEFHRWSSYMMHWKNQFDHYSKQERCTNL", "UniProt P53341": "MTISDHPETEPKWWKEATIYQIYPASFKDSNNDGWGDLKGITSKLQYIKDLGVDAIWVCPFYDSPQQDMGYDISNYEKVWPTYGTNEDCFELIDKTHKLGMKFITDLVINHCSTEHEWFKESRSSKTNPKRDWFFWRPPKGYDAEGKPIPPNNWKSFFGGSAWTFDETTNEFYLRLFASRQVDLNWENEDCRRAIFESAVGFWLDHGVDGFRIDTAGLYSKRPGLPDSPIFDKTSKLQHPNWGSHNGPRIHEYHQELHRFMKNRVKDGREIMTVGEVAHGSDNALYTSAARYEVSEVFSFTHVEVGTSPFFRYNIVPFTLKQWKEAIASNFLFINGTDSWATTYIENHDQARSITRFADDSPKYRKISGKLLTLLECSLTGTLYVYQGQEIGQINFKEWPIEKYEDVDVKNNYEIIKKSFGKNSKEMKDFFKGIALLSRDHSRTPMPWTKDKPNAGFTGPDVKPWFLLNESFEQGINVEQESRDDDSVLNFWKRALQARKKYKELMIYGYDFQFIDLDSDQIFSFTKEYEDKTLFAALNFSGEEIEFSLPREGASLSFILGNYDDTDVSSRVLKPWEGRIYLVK"}, "source": "paper PMC6270205", "about": "“Antimicrobial and Selected In Vitro Enzyme Inhibitory Effects of Leaf Extracts, Flavonols and Indole Alkaloids Isolated from Croton menyharthii” (Molecules, 2013)", "key": {"[1]": {"target": "T1, AChE (isolated from electric eels) (Electrophorus electricus, UniProt O42275)", "T1 construct": "AChE (isolated from electric eels) (type VI-S lyophilized powder); purchased Sigma-Aldrich type VI-S lyophilized powder; host or cells: isolated from electric eels", "type": "biochemical", "details": "mean ± standard error"}, "yeast α-glucosidase": {"target": "T2, yeast α-glucosidase (Saccharomyces cerevisiae, UniProt P53341)", "T2 construct": "purchased Sigma-Aldrich", "experiment": "α-Glucosidase inhibitory activity", "type": "biochemical, Saccharomyces cervisiae", "details": "mean ± standard error"}}}
{"substance": "Quercetin-3-O-rhamnoside [Quercetin-3-O-rhamnoside (2)]", "values": [{"measurement": "AChE inhibitory activity IC50", "setting": "[1]", "result": "60.7 ± 7.9", "unit": "µg·days/mL"}, {"measurement": "α-Glucosidase inhibitory activity IC50", "setting": "yeast α-glucosidase", "result": "122.7 ± 1.6 a,b µg/mL"}]}
